These results are taken from ChEMBL document CHEMBL3259517, “Synthesis and evaluation of phosphorus containing, specific CDK9/CycT1 inhibitors” (J Med Chem, 2014).

Sequences of proteins named here, by UniProt entry; tags and fusion partners are left off.
UniProt O60563, whole entry, looked up: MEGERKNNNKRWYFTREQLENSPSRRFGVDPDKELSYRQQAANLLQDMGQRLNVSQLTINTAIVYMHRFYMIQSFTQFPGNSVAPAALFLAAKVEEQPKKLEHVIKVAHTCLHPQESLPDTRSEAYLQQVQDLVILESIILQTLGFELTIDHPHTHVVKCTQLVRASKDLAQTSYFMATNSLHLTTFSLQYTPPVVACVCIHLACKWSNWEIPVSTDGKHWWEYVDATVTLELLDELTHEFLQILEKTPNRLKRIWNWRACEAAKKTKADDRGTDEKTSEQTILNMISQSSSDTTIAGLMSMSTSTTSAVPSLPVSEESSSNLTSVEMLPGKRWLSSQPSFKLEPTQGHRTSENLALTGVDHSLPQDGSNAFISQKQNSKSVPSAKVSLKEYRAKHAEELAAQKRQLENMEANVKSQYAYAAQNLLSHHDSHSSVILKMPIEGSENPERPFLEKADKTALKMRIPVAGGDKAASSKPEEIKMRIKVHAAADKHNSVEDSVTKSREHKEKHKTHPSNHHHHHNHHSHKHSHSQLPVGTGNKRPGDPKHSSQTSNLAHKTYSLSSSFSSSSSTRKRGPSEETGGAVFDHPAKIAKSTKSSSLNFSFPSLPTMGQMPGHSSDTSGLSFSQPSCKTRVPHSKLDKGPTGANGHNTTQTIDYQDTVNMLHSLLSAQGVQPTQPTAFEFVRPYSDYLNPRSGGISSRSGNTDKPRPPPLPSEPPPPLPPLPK
UniProt P50750, whole entry, looked up: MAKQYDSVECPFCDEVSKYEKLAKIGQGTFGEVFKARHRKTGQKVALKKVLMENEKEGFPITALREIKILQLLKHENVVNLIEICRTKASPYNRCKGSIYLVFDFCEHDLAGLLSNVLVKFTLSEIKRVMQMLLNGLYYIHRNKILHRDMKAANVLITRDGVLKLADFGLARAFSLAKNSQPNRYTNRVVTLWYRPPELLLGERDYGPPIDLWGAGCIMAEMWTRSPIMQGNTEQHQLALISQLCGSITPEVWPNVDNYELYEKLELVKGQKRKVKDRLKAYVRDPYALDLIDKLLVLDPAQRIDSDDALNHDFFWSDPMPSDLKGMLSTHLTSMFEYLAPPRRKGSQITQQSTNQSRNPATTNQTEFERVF

For the assay, the target named is CDK9/cyclin T1 (Homo sapiens, UniProt O60563+P50750).

One may read the IC50 as the point on the concentration scale where inhibition reaches its midpoint. For the compound `CCCP(=O)(Oc1ccc(Nc2cc(-c3ccccc3OC)ncn2)cc1)OC(C)C` (configuration not stated), the IC50 was found to be 407 nM. In other words, the sub-micromolar range.
In the case of `CCOP(=O)(CC)Oc1cccc(Nc2cc(-c3ccccc3OC)ncn2)c1` (configuration not stated), it took 400 nM to reach half-maximal inhibition (IC50). This IC50 and that of the compound before are within 1.5-fold of each other.
`CCOP(=O)(CC)Nc1cc(Nc2cc(-c3ccccc3OC)ncn2)ccc1C` (configuration not stated): the IC50 turned out to be 1450 nM.
The compound `CCCP(=O)(Oc1cccc(Nc2cc(-c3cccc([N+](=O)[O-])c3)ncn2)c1)OC(C)C` (configuration not stated) gave an IC50 above 10000 nM.
The value for `CCOP(=O)(CC)Oc1cc(Nc2cc(-c3cccc(N)c3)ncn2)ccc1C` (configuration not stated) was 870 nM; that for `CCOP(=O)(CC)Oc1ccc(Nc2cc(-c3ccccc3OC)ncn2)cc1` (configuration not stated) was 360 nM.
`CCCP(=O)(Oc1ccc(Nc2cc(-c3cccc([N+](=O)[O-])c3)ncn2)cc1)OC(C)C` (configuration not stated) displayed an IC50 above 10000 nM.
The figure for `CCOP(=O)(CC)Oc1ccc(Nc2cc(-c3cccc([N+](=O)[O-])c3)ncn2)cc1` (configuration not stated) is above 10000 nM; for `CCOP(=O)(CC)Oc1ccc(Nc2cc(-c3cccc(N)c3)ncn2)cc1` (configuration not stated) it is 3840 nM; for `CCCP(=O)(Oc1cc(Nc2cc(-c3cccc(N)c3)ncn2)ccc1C)OC(C)C` (configuration not stated) it is 5380 nM.
As to `CCP(=O)(O)Oc1cc(Nc2cc(-c3ccccc3OC)ncn2)ccc1C`, the IC50 is 1490 nM. Compared with the last compound, the IC50 is about 3.6-fold lower.
With `CCCP(=O)(Oc1cc(Nc2cc(-c3ccccc3OC)ncn2)ccc1C)OC(C)C` (configuration not stated), inhibition was half-maximal at 3060 nM (IC50).
The figure for `CCCP(=O)(Oc1ccc(Nc2cc(-c3cccc(N)c3)ncn2)cc1)OC(C)C` (configuration not stated) is 6060 nM; for `CCOP(=O)(CC)Oc1cccc(Nc2cc(-c3cccc([N+](=O)[O-])c3)ncn2)c1` (configuration not stated) it is above 10000 nM; for `CCOP(=O)(CC)Oc1cc(Nc2cc(-c3cccc([N+](=O)[O-])c3)ncn2)ccc1C` (configuration not stated) it is above 10000 nM.
`CCCP(=O)(O)Oc1cc(Nc2cc(-c3ccccc3OC)ncn2)ccc1C` came in with an IC50 of 1460 nM.
For `CCCP(=O)(Oc1cccc(Nc2cc(-c3cccc(N)c3)ncn2)c1)OC(C)C` (configuration not stated), inhibition was half-maximal at 6430 nM (IC50).
The value for `CCCP(=O)(Oc1cccc(Nc2cc(-c3ccccc3OC)ncn2)c1)OC(C)C` (configuration not stated) was 1180 nM; that for `CCOP(=O)(CC)Oc1cccc(Nc2cc(-c3cccc(N)c3)ncn2)c1` (configuration not stated) was 1800 nM.
As to `CCCP(=O)(Nc1cc(Nc2cc(-c3ccccc3OC)ncn2)ccc1C)OC(C)C` (configuration not stated), the 50% inhibitory concentration (IC50) is 3170 nM. Against the preceding compound, the IC50 is about 1.8-fold higher.
Regarding `CCCP(=O)(Oc1cc(Nc2cc(-c3cccc([N+](=O)[O-])c3)ncn2)ccc1C)OC(C)C` (configuration not stated), the IC50 is above 10000 nM.
The value for `CCOP(=O)(CC)Oc1cc(Nc2cc(-c3ccccc3OC)ncn2)ccc1C` (configuration not stated) was 813 nM.
